## scFv variants of Ab-95 (light chain) against a SARS-CoV-2 spike peptide

All variants were tested on one target, the spike HR2 peptide PDVDLGDISGINAS (SARS-CoV-2).

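Phage display of a naive human antibody library on the peptide gave the parent. In library AAYL52, one, two or three CDR residues were substituted; doubles and triples were drawn at random. Affinity was read by AlphaSeq, a pooled yeast mating assay with surface-displayed partners. After mating in shaken culture at 30 °C for 16 h, diploids were selected and their barcode pairs sequenced. Read counts were normalised to the haploid input and turned into Kd by a linear fit to BCL2-family pairs of known affinity, for each replicate. Each pool was mated in three replicate cultures.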

The variants keep the heavy chain, the linker and the frameworks of Ab-95 (scFv order VH, a 15-residue (Gly4Ser)3 linker, VL).
VH: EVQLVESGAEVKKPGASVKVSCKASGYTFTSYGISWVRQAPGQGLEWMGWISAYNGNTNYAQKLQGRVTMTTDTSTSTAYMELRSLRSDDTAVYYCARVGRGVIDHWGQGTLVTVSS
VL: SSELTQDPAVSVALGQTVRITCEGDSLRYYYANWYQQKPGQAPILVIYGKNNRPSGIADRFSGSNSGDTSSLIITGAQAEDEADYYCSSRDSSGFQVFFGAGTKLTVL

Positions count from residue 1 of the parent VL; Y30Q puts Q in place of Y.
The Kd shown is the geometric mean over detected replicates; a lower Kd is a better binder.
An entry "nd" has no value in the source: the pair was not observed among the diploids in any replicate. This suggests poor binding but is not conclusive.
Order: sorted from the lowest average up, undetected variants last.
Nonspecific signal, from three strains lacking the peptide, appeared in 28% of pairings of library AAYL52, centred on 8.2 µM (5% of these signals below 800 nM); values are not corrected for it.

| # | changes | apparent Kd | seen in |
|---|---|---|---|
| 1 | Y30Q R53A | 5.8 nM | 3/3 |
| 2 | Y31Q S88R S93K | 9.1 nM | 3/3 |
| 3 | Y30A K50D R90N | 20 nM | 3/3 |
| 4 | Y30S K50M P54Y | 34 nM | 3/3 |
| 5 | Y29I F95C F98Q | 49 nM | 3/3 |
| 6 | E23I Y31N S93M | 64 nM | 3/3 |
| 7 | E23S Y30H S93W | 140 nM | 3/3 |
| 8 | R28N A32L D91S | 190 nM | 3/3 |
| 9 | D91V G94M F95Q | 210 nM | 3/3 |
| 10 | D25T G49D F95A | 300 nM | 3/3 |
| 11 | S88W D91M | 340 nM | 3/3 |
| 12 | Y31L S55D G94P | 400 nM | 3/3 |
| 13 | G24Q Y29V Y30N | 440 nM | 3/3 |
| 14 | Y30V A32E N51Q | 450 nM | 3/3 |
| 15 | S89C F98D | 520 nM | 3/3 |
| 16 | E23R D25K N51Q | 760 nM | 3/3 |
| 17 | S26D R53W S89A | 890 nM | 1/3 |
| 18 | A32T K50S S93C | 940 nM | 3/3 |
| 19 | D25M S26L Y30E | 960 nM | 3/3 |
| 20 | G24W N33G S92W | 1.0 µM | 2/3 |
| 21 | Y29T Y30L N52K | 1.3 µM | 3/3 |
| 22 | E23Y Y31L K50V | 1.4 µM | 3/3 |
| 23 | K50L S89E D91S | 1.5 µM | 3/3 |
| 24 | S26A A32G Q96A | 1.6 µM | 3/3 |
| 25 | R53E S89V | 1.7 µM | 3/3 |
| 26 | S26W R28E Y31G | 1.8 µM | 3/3 |
| 27 | N33Y Q96L | 2.3 µM | 3/3 |
| 28 | D25G N51W F98I | 2.8 µM | 2/3 |
| 29 | Y30C G49N S92I | 3.1 µM | 2/3 |
| 30 | S26R Y30T V97N | 4.1 µM | 2/3 |
| 31 | Y30T R53M D91W | 4.7 µM | 1/3 |
| 32 | R28V S55Q R90V | 4.9 µM | 2/3 |
| 33 | L27V K50M S89Q | 5.1 µM | 1/3 |
| 34 | S26Y L27F D91G | 6.4 µM | 1/3 |
| 35 | E23I S93W | 6.5 µM | 2/3 |
| 36 | A32E N51V G94N | 6.8 µM | 1/3 |
| 37 | Y29W Y31Q G94N | 8.0 µM | 3/3 |
| 38 | P54Q S89Q D91W | 8.5 µM | 1/3 |
| 39 | A32S N33S F95T | 8.5 µM | 2/3 |
| 40 | S55R S88E F98E | 9.7 µM | 2/3 |
| 41 | D25F N51D S93Y | 10 µM | 3/3 |
| 42 | S26V N51P N52W | 11 µM | 2/3 |
| 43 | G24M R53S Q96R | 13 µM | 2/3 |
| 44 | K50V N51V G94Q | 13 µM | 2/3 |
| 45 | Y29A S89P | 14 µM | 1/3 |
| 46 | D25A N51P F98C | 14 µM | 2/3 |
| 47 | A32K R90L F98N | 15 µM | 1/3 |
| 48 | G49F S88V V97N | 18 µM | 2/3 |
| 49 | S89E D91S | 20 µM | 3/3 |
| 50 | L27G N52E R90D | 22 µM | 1/3 |
| 51 | G49I S92L F95E | 29 µM | 3/3 |
| 52 | L27P N33W S92V | 71 µM | 2/3 |
| 53 | P54M S93Q Q96V | 190 µM | 1/3 |
| 54 | N51W S55C S93F | 380 µM | 1/3 |
| 55 | R53K P54L G94M | nd | 0/3 |
| 56 | R53N S89N G94F | nd | 0/3 |
| 57 | L27W Y29T R90N | nd | 0/3 |
| 58 | R53D R90D F98T | nd | 0/3 |
| 59 | S26V N52A Q96A | nd | 0/3 |
| 60 | Y31E A32E S93V | nd | 0/3 |
| 61 | A32D S93I | nd | 0/3 |
| 62 | S26H R90I F98M | nd | 0/3 |
| 63 | N51T P54H V97I | nd | 0/3 |
| 64 | E23A G24R G49F | nd | 0/3 |

5 of these entries, quoted again:

changes,apparent Kd,seen in
A32E N51V G94N,6.8 µM,1/3
L27G N52E R90D,22 µM,1/3
E23R D25K N51Q,760 nM,3/3
D91V G94M F95Q,210 nM,3/3
R28N A32L D91S,190 nM,3/3

Data: MIT Lincoln Laboratory AlphaSeq set, Engelhart et al. 2022, doi:10.1038/s41597-022-01779-4, as distributed in FLAb.